1 compound from ChEMBL document CHEMBL1127648, “Synthesis of 2-piperazinylbenzothiazole and 2-piperazinylbenzoxazole derivatives with 5-HT3 antagonist and 5-HT4 agonist properties” (J Med Chem, 1994) can be followed below.

Chains of the proteins cited; added tags and fusions are not shown. Lines headed by an entry give the natural chain unless they say otherwise; changes in a name come on top.
UniProt P35563, whole entry: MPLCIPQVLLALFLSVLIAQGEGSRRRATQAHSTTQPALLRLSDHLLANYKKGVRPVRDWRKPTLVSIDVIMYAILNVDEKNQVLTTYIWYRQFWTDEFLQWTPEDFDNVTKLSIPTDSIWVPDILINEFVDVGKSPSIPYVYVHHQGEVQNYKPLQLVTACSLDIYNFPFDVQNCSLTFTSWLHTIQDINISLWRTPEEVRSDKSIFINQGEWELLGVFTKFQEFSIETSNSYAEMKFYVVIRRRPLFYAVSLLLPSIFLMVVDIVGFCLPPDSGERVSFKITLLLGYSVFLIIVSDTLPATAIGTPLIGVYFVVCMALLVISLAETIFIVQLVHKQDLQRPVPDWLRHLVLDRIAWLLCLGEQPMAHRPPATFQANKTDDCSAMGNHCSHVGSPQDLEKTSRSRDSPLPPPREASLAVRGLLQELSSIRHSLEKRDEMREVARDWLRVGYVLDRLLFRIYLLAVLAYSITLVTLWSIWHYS
UniProt Q9JJ16: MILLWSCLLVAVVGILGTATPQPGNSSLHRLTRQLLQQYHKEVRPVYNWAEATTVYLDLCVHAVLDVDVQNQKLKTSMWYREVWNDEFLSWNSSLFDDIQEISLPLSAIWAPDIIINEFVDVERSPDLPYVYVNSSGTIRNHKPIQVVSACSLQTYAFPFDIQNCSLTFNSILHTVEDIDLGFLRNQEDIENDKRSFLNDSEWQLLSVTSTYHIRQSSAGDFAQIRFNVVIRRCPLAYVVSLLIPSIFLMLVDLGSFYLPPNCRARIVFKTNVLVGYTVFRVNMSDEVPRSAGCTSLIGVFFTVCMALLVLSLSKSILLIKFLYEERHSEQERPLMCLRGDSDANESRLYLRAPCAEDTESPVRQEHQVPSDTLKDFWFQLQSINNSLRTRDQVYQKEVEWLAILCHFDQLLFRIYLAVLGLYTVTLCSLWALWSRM
UniProt P61169, whole entry: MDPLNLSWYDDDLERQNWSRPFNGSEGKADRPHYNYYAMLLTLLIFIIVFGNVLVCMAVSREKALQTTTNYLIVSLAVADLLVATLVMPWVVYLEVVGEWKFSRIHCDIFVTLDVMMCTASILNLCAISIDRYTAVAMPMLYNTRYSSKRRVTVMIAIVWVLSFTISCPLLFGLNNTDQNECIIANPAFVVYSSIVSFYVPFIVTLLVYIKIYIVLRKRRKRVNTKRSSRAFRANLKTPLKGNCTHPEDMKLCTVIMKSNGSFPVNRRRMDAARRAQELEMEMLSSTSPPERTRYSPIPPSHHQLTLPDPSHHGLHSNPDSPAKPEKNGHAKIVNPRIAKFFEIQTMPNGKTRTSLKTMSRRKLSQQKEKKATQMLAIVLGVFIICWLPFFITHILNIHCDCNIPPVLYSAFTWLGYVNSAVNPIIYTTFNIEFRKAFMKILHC

For experiment [1], the target named is Serotonin 3 (5-HT3) receptor (Rattus norvegicus, UniProt P35563+Q9JJ16). The experiment is described as follows: Inhibition of [3H]BRL-43694 binding to rat 5-hydroxytryptamine 3 receptor. It counts as protein-complex assay.
Another experiment has as its target D(2) dopamine receptor (Rattus norvegicus, UniProt P61169). The experiment is described as follows: Displacement of [3H]spiroperidol from D2 dopamine receptor. For orientation: Loss of bound radioactivity is the signal in a displacement assay; it reports binding, not function.

Turning to `COc1cc(N)c(Cl)cc1C(=O)NC1CCN(CCCOc2ccc(F)cc2)CC1OC` (configuration not stated) [CISAPRIDE], the IC50 came to 90 nM in experiment [1] and 68 nM on D(2) dopamine receptor.

The term IC50 denotes the concentration at which inhibition is half-maximal. A lower IC50 goes with greater potency in that assay.
